Literature values, collected in patent US6552014B2, “Methods of inhibiting platelet activation with selective serotonin reuptake inhibitors” (HeartDrug Research, L.L.C., priority 1999, dated 2003).

Settings: in vivo; cited from earlier work

CN[C@H]1CC[C@@H](c2ccc(Cl)c(Cl)c2)c2ccccc21 [sertraline]
equilibration of serum levels: within approximately one week
